Data from US20260382586A1, “DUAL INHIBITORS OF SIGMA-1 RECEPTOR AND SOLUBLE EPOXIDE HYDROLASE AND THEIR USE IN THE TREATMENT OF PAIN” (published 2026).
pIC50, pKi: −log10 of the molar value.

Amino acid sequences for entries named in this document (tags omitted). A change or cut given only in a name is not applied to a line headed by its entry.
UniProt Q9R0C9, whole entry: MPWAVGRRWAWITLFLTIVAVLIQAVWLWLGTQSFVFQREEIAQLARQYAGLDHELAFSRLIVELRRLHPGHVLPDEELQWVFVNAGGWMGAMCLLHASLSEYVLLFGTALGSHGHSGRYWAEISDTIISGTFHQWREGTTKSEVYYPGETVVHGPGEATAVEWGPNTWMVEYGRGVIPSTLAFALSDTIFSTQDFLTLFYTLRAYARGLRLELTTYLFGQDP
UniProt Q99720, whole entry: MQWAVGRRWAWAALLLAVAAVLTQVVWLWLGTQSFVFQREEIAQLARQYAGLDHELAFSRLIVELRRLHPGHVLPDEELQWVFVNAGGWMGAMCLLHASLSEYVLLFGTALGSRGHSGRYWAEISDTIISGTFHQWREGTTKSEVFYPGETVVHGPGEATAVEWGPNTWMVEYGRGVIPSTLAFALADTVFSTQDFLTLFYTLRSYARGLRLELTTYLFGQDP
UniProt P34913, whole entry: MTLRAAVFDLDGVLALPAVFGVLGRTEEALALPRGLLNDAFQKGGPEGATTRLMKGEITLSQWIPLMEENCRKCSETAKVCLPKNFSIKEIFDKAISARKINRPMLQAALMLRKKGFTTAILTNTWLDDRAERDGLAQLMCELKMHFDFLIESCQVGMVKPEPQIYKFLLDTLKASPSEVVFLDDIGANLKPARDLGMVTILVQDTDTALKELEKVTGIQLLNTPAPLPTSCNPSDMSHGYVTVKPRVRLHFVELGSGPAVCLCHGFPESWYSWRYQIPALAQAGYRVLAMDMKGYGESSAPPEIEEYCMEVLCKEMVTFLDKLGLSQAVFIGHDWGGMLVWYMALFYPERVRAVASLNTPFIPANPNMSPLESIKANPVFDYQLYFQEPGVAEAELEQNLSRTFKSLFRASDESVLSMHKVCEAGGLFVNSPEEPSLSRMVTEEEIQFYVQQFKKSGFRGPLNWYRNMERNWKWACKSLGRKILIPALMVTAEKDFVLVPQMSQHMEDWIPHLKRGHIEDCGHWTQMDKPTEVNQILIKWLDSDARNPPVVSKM

Columns and labels:
[1] = Postoperative pain (laparotomy) model in mice, von Frey threshold; conditions: 10-40 mg/kg s.c., 60, 120 and 180 min after injection
[2] = target: S1R (Rattus norvegicus, UniProt Q9R0C9); assay: Phenytoin (DPH) modulation of [3H]-(+)-pentazocine binding: agonist/antagonist character on S1R
[3] = target: human S1R (Homo sapiens, UniProt Q99720); assay: Binding to S1R ([3H]-(+)-pentazocine, transfected HEK-293 membranes); conditions: read-out: Binding S1R (Ki); human S1R, [3H]-(+)-pentazocine 5 nM, 37 °C, 120 min, pH 8
[4] = Capsaicin-induced tactile (mechanical) allodynia in mice
[5] = target: recombinant human sEH (Homo sapiens, UniProt P34913); assay: Inhibition of sEH (fluorescent assay, CMNPC substrate); conditions: read-out: Inhibition sEH (IC50); human sEH, pH 7.4, 30 °C, [S]=5 μM

SMILES	sensory (von Frey) threshold / antiallodynic effect after laparotomy [1]	sensory (von Frey) threshold / antiallodynic effect after laparotomy ([1]; listed as Ex. 2)	sensory (von Frey) threshold / antiallodynic effect after laparotomy ([1]; listed as compound of the invention)	ratio of Ki without phenytoin/with phenytoin [2]	functional character on S1R ([2]; 1 mM phenytoin (DPH))	pKi [3]	antiallodynic effect ([4]; 2.5 mg/kg s.c., capsaicin 1 μg i.pl., 45 min before evaluation)	paw withdrawal latency ([4]; 0.625-10 mg/kg s.c., capsaicin 1 μg i.pl.)	antiallodynic effect in capsaicin-induced mechanical hypersensitivity (in words) ([4]; FIGS. 1 and 2)	pIC50 [5]
N#Cc1ccc(CNC(=O)C2CCN(Cc3ccccc3)CC2)c(C(F)(F)F)c1	dose-dependently increased the sensory threshold, in particular at 120 min after drug administration	prominent relief of sensory hypersensitivity in laparotomized mice, in particular at 120 min after drug administration	marked antiallodynic effect	0.8	acts as an antagonist for the S1R	6.82 to 7.30	75.49%	dose-dependently increased the paw withdrawal latency in mice up to the value of control nonsensitized mice	marked antiallodynic effect	7.30 to 8.00
C=CCN1CCC2(C)c3cc(O)ccc3CC1C2C (centres unmarked)	–	–	–	6.0	–	–	–	–	–	–
